Active and inactive are the calls of the source. The rule behind the calls is not given here.
Tests used:
[1] = target: T1, Histone deacetylase 8 (Homo sapiens) (UniProt Q9BY41); assay: Inhibition of recombinant human HDAC8 using Boc-Lys (trifluoroacetyl)-AMC as substrate ay 35 uM preincubated for 1 hr followed by substrate addition and measured after 1 hr by micro plate reader analysis
T1 sequence (whole entry): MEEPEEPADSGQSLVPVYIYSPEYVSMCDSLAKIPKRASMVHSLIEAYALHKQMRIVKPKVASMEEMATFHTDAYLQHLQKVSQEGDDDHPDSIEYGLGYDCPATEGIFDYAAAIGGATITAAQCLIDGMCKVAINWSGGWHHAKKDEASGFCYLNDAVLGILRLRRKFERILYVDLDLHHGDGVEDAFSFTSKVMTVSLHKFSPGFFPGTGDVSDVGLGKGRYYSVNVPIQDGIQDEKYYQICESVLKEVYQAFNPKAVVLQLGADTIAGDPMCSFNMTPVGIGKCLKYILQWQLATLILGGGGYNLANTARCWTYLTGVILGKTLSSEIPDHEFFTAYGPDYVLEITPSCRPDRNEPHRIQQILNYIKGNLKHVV

Chains of the proteins cited; added tags and fusions are not shown. Lines headed by an entry give the natural chain unless they say otherwise; changes in a name come on top.
UniProt P56524: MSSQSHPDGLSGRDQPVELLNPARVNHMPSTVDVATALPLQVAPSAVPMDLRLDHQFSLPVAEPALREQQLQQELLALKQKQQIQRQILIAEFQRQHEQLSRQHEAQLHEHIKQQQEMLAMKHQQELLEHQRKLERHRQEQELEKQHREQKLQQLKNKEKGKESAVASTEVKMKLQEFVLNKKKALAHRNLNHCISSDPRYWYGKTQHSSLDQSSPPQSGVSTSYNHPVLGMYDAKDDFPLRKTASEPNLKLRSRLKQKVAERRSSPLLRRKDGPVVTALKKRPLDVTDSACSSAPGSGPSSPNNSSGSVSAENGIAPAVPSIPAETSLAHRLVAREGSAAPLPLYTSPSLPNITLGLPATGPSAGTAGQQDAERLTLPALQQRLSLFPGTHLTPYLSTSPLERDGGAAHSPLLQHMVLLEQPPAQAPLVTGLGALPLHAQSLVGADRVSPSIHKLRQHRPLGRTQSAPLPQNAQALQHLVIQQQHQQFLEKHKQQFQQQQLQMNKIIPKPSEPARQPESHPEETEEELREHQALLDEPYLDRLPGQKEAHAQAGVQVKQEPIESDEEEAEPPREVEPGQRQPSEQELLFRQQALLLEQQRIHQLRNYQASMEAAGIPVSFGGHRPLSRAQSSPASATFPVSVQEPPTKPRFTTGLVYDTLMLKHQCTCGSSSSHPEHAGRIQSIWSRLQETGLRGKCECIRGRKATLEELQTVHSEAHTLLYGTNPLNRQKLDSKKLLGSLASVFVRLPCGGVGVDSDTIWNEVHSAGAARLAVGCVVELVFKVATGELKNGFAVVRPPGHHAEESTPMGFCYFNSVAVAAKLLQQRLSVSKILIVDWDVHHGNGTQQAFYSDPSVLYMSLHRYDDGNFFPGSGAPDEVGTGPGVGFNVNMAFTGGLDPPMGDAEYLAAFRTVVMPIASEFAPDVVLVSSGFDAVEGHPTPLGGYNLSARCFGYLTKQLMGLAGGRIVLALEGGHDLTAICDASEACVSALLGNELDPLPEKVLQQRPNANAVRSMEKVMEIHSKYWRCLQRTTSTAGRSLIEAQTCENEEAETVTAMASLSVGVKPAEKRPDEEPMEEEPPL

[2] = target: T2, Histone deacetylase 4 (Homo sapiens, UniProt P56524); assay: Inhibition of recombinant human HDAC4 using Boc-Lys (trifluoroacetyl)-AMC as substrate ay 35 uM preincubated for 1 hr followed by substrate addition and measured after 1 hr by micro plate reader analysis
[3] = target: T2, Histone deacetylase 4; assay: Inhibition of recombinant human HDAC4 using Boc-Lys (trifluoroacetyl)-AMC as substrate preincubated for 1 hr followed by substrate addition and measured after 1 hr by micro plate reader analysis

| SMILES | inhibition [1] | inhibition [2] | IC50 [3] |
| --- | --- | --- | --- |
| Cc1ccc(NC(=O)COc2ccc3cc(/C=C4/SC(=O)NC4=O)ccc3c2)cc1 | Active | Active | – |
| O=C(COc1ccc2cc(/C=C3/SC(=O)NC3=O)ccc2c1)Nc1ccc([N+](=O)[O-])cc1 | Active | Active | – |
| O=C(COc1ccc2cc(/C=C3/SC(=O)NC3=O)ccc2c1)Nc1ccc(Br)cc1 | Active | Active | – |
| O=C(COc1ccc2cc(/C=C3/SC(=O)NC3=O)ccc2c1)Nc1c(F)cc(F)cc1Br | Active | Active | – |
| COc1ccc(Cn2ccc3ccc(C(=O)NO)cc32)cc1 | – | – | 10 µM |
| O=C(COc1ccc2cc(/C=C3/SC(=O)NC3=O)ccc2c1)Nc1ccc(Br)cc1F | Active | Active | – |
| Cc1cc(Br)ccc1NC(=O)COc1ccc2cc(/C=C3/SC(=O)NC3=O)ccc2c1 | Active | Active | – |
